The test system of the assay is RRV-induced biliary atresia.

Data on one molecule can be found in patent US20230111925A1, “FIBROTIC DISEASE MECHANISM AND THERAPEUTIC DRUG THEREFOR” (GUANGZHOU WOMEN AND CHILDREN'S MEDICAL CENTER, priority 2020, published 2023).

On to `OCCN(CCO)c1nc(N2CCCCC2)c2nc(N(CCO)CCO)nc(N3CCCCC3)c2n1` [Dipyridamole], for which, where the note is “50 μg Dip per 2 g weight i.p.”, the jaundice entry is recorded as “without jaundice”. Where the note is “50 μg Dip per 2 g weight i.p. before RRV and on days 3, 6, 9, end day 12”, the weights of mice entry is “increase”.
